Assay results: patent US5910482A, “Treatment or prevention of preeclampsia, eclampsia with calcitonin gene related peptide, CGRP analog, progestational agent, nitric oxide source, and cyclooxygenase inhibitor” (priority 1996, dated 1999)

Experiments:
[1] = system: pregnant rats; test: Delivery day and pup survival after L-NAME infusion to pregnant rats; effect of CGRP on fetal survival; assay type: in vivo; conditions: "preeclamptic" (L-NAME) animals treated with CGRP; FIG. 3; 5 rats per group
Source text: The data in Table 2 below show the delivery day and the pups survival following delivery of L-NAME infusion to pregnant rats.
Thus CGRP and CGRP/amylin/adrenomedullin or their receptor-based peptide or non-peptide agonists compounds administered to "preeclamptic" group of animals provides a highly significant advantage to survival of the fetus under these conditions.

[2] = system: L-NAME-induced hypertension; test: Effect of CGRP, with or without progesterone, on L-NAME-induced hypertension during pregnancy and postpartum; assay type: in vivo, rat
Protocol: The effects of hypertensive agent L-NAME (50 mg/rat) on blood pressure were studied. […] L-NAME was infused as described in the FIG. 2.

For “calcitonin gene-related peptide (ACDTATCVTHRLAGLLSRSGGVVKNNFVPTNVGSKAF; Calcitonin gene-related peptide 1; UniProt P06881 83-119, looked up) [CGRP, 37-amino acid vasodilator neuropeptide, synthesized by Merrifield t-Boc solid-phase chemistry]”, the Fetal survival rate [1] was “significantly improves the fetal survival rate”, the “Effect on L-NAME-induced hypertension” value ([2]; CGRP alone, postpartum period, when circulating progesterone levels are minimal) was “ineffective” and the “Effect on L-NAME-induced hypertension” value ([2]; during pregnancy, when progesterone levels are elevated, L-NAME 50 mg/rat) was “completely reduced L-NAME-induced hypertension”.
